Assays:
Homo sapiens [1] = organism: Homo sapiens; assay: Selectivity ratio of Ki for human kappa opioid receptor to Ki for human delta opioid receptor
Homo sapiens [2] = organism: Homo sapiens; assay: Selectivity ratio of Ki for human mu opioid receptor to Ki for human delta opioid receptor
Homo sapiens [3] = organism: Homo sapiens; assay: Selectivity ratio of Ki for human mu opioid receptor to Ki for human kappa opioid receptor

CN1CC[C@]23CCCC[C@H]2[C@H]1Cc1ccc(O)cc13
Ratio Ki (Homo sapiens [1]): 1
Ratio Ki (Homo sapiens [2]): 20
Ratio Ki (Homo sapiens [3]): 11

Oc1ccc2c(c1)[C@@]13CCCC[C@H]1[C@@H](C2)N(CC1CCC1)CC3
Ratio Ki (Homo sapiens [3]): 1

Reference: ChEMBL document CHEMBL1156604 (Bioorg Med Chem Lett, 2008)
